Experimental data from paper PMC3954112 (Drug and alcohol dependence, 2013).

Sequences of proteins named here, by UniProt entry; tags and fusion partners are left off.
UniProt P14416, whole entry: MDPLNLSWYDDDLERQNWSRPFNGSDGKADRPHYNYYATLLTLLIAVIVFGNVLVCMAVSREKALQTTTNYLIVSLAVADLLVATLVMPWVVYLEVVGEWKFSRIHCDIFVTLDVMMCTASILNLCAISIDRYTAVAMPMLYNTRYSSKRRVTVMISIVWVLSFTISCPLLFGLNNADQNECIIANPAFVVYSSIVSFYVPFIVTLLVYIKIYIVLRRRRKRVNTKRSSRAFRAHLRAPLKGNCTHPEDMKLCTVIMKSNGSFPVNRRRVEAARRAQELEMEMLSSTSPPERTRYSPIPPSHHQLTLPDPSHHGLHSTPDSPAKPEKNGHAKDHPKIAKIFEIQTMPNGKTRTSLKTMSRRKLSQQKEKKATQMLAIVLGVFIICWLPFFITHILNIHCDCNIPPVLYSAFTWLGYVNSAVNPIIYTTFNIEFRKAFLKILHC

Biological target: human DA D2 receptor (Homo sapiens, UniProt P14416)
Settings: read-out: Ki, D2; [3H]N-Methyl-spiperone; HEK293 membranes

`COc1cc2c(cc1O)[C@@H]1Cc3ccc(OC)c(OC)c3CN1CC2` [l-ICP, l-isocorypalmine] was tested, and the Ki was 41.8 ± 1.8 nM.
